Earlier results as cited in PMC11221189, “Gut microbiota DPP4-like enzymes are increased in type-2 diabetes and contribute to incretin inactivation” (Genome Biology, 2024).

Legend:
[1] = tested on: DPP4-like enzyme from B. thetaiotaomicron; conditions: cited from earlier work
[2] = tested on: DPP4 activity in the contents of the cecum and feces; conditions: mice; cited from earlier work

Structure (SMILES) | Inhibition range of B. thetaiotaomicron DPP4-like enzyme [1] | DPP4 activity in the contents of the cecum and feces [2]
N[C@@H](CC(=O)N1CCn2c(nnc2C(F)(F)F)C1)Cc1cc(F)c(F)cc1F [Sitagliptin, sitagliptin] | ~10^−6 | –
N#C[C@@H]1CCCN1C(=O)CNC12CC3CC(CC(O)(C3)C1)C2 [Vildagliptin, vildagliptin] | – | abolished
